This note sets out measurements from paper PMC3839849.

The experiment has as its target CaV1.2 IQ domain (human). In words: ITC.

Substance “N-lobeCaMEF12, apo-CaM N-lobe mimic (domain or fragment)” returned a Kd greater than 5 µM.
In turn, “C-lobeCaMEF34, apo-CaM C-lobe mimic (domain or fragment)” registered a Kd of 2.2 µM and a dH of -3.79 kcal/mol.
